By UniProt entry, the sequences of proteins in these tests, tags left out.
UniProt P25025, whole entry: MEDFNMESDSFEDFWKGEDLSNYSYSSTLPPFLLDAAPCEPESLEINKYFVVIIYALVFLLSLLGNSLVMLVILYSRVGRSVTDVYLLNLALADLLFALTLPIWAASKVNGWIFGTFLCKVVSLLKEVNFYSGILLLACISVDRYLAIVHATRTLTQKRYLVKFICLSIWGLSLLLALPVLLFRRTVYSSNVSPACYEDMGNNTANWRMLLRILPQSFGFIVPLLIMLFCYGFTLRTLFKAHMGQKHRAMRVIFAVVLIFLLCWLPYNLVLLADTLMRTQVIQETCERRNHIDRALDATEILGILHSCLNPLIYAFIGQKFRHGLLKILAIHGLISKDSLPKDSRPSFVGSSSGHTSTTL

The compounds below were run against CXCR2 (Homo sapiens (Human), UniProt P25025) (assay: Inhibition of GROα-mediated intracellular calcium release in human neutrophils (FLIPR-3 Ca2+ mobilization)). Conditions: 25 nM GROα.
Type: cell-based
Compound `O=C(Nc1ccc(F)cc1)c1ccc([S+]([O-])Cc2cc(OC(F)(F)F)ccc2O)nc1` (centres unmarked) has an IC50 of 1.23 µM.
With `O=C(Nc1ccc(F)cc1)c1ccc(S(=O)(=O)Cc2ccccc2O)nc1` the IC50 was 10.2 µM.
`O=C(Nc1ccc(F)cc1)c1ccc([S+]([O-])Cc2ccccc2)nc1` (centres unmarked) was tested, and the IC50 was greater than 10 µM.
`O=C(Nc1ccc(F)cc1)c1ccc(S(=O)(=O)Cc2cc(OC(F)(F)F)ccc2O)nc1` showed an IC50 of 1.19 µM.
`O=C(Nc1ccc(F)cc1)c1ccc(S(=O)(=O)Cc2ccccc2)nc1` gave an IC50 greater than 10 µM.

Source: patent US8981106B2, “Pyrimidinecarboxamides as CXCR2 modulators” (Syntrix Biosystems, Inc., priority 2009, dated 2015)
